This passage reports Ki results from ChEMBL document CHEMBL6078716, “Advances in Psychedelic Therapeutics: Novel Prodrugs and Derivatives for Enhanced Mental Health Treatment” (ACS Med Chem Lett, 2024).

By UniProt entry, the sequences of proteins in these tests, tags left out.
UniProt P41595, whole entry: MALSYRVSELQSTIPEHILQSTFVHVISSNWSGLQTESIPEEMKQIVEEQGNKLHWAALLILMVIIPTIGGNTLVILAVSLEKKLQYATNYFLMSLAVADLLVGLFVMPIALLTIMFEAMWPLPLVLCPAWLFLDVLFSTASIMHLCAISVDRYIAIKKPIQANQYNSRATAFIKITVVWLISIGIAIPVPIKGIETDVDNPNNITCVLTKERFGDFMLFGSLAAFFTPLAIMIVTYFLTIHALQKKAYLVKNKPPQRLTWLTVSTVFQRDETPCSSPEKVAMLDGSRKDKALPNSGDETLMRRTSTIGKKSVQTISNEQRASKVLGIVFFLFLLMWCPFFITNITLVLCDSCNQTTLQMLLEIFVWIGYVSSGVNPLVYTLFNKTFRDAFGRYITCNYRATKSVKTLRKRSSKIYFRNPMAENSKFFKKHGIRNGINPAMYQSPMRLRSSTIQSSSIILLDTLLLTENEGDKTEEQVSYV

The target in this assay is 5-hydroxytryptamine receptor 2B (Homo sapiens, UniProt P41595). Put plainly: Binding affinity to 5-HT2B receptor (unknown origin) expressed in HEK293 cells assessed as inhibition constant. It counts as cell-based.

Structures are written as SMILES. Bounds are passed on as bounds.

On to `CN(C)CCc1c[nH]c2cccc(OP(=O)(O)O)c12` [PSILOCYBIN], for which the Ki was above 10 µM.
